# Where two headings read alike, the source gives them in different places.
# Details: rat; for Pre-frontal cortex: thalmus: ratio of regional uptake
substance,measurement,setting,value
Ortho-[^18F]Flumazenil [ortho-[^18F]-flumazenil],Radioactivity in the pre-frontal cortex (region with the highest levels),10 minutes pi,1.39±0.06 % id
same,Pre-frontal cortex: thalmus,0.5 min post-injection,1.11
same,Pre-frontal cortex: thalmus,2 min post-injection,1.37
same,Pre-frontal cortex: thalmus,10 min post-injection,1.50
same,Pre-frontal cortex: thalmus,30 min post-injection,2.28
same,Pre-frontal cortex: thalmus,60 min post-injection,3.96

# Source: US8946410B2, “Automated radiosynthesis” (GE Healthcare Limited, priority 2009, dated 2015)
